Key:
[1] = continuous use; well known; cited from earlier work
pH of solution = format: physicochemical
[2] = stability of 1000 ppm F^- solutions; conditions: Zn, Co several weeks, SnF2 24 hours at room temperature
[3] = fluoride ion availability, Orion-Selective Fluoride electrode

## SnF2
[1]
  staining of teeth: stains teeth, yellow to brown
pH of solution
  pH values in solution: 3.0
[2]
  stability of solution (haze/turbidity): developed turbidity
[3]; 1000 ppm F level
  availability of F^- ion: 80%
[3]; 2500 ppm F level
  availability of F^- ion: 45%
